Earlier results in patent publication US8119808B2, “Tetrahydroquinoline derivatives as cannabinoid receptor modulators” (Bristol-Myers Squibb Company, priority 2003, dated 2012).

Protein sequences, listed by entry. Tags and fused reporters are not part of them.
UniProt P47746, whole entry: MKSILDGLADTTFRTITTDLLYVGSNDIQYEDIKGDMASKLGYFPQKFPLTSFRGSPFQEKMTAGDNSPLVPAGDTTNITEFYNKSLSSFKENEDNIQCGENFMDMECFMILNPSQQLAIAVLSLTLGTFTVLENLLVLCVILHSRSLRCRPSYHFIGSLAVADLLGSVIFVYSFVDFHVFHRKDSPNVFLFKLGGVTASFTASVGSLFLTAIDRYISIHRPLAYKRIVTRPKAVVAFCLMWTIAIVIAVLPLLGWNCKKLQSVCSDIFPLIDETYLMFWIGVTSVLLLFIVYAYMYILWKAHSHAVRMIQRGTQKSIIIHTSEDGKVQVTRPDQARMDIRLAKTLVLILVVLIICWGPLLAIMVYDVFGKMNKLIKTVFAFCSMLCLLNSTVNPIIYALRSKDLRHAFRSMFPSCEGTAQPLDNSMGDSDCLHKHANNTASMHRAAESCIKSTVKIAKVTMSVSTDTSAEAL

Biological target: CB-1 (Mus musculus, UniProt P47746)
Settings: chronic administration for two weeks; cited from earlier work

## AM-251
  body weight and adipose tissue mass: substantial body weight reduction and decreased adipose tissue mass
